# According to paper PMC8533160, “First Crystal Structure of Bacterial Oligopeptidase B in an Intermediate State: The Roles of the Hinge Region Modification and Spermine” (Biology, 2021):
# Experiments:
# Assay in all cases: purified protein
# Details in all cases: 0.1 M Tris-HCl, pH 8.0, 2% DMSO, 25 °C
# [1] = tested on: N=C(N)NCCC[C@H](NC(=O)[C@H](CCCCN)NC(=O)OCc1ccccc1)C(=O)Nc1ccc([N+](=O)[O-])cc1
# [2] = tested on: N=C(N)NCCCC(NC(=O)c1ccccc1)C(=O)Nc1ccc([N+](=O)[O-])cc1
# [3] = tested on: N=C(N)NCCC[C@H](NC(=O)OCc1ccccc1)C(=O)N[C@@H](CCCNC(=N)N)C(=O)Nc1ccc([N+](=O)[O-])cc1
Substance,Km [1],kcat [1],kcat/Km [1],Km [2],kcat [2],kcat/Km [2],Km [3],kcat [3],kcat/Km [3]
PSP (oligopeptidase B from Serratia proteomaculans) (Serratia proteamaculans; E75F/H76Q/I71E/P72N/Q73L/Q74Y),124.4 µM,9.88 s⁻¹,79500 M⁻¹ s⁻¹,188.8 µM,1.53 s⁻¹,8170 M⁻¹ s⁻¹,11.18 µM,2.62 s⁻¹,235000 M⁻¹ s⁻¹
PSP (oligopeptidase B from Serratia proteomaculans) (Serratia proteamaculans; E125A/E75F/H76Q/I71E/P72N/Q73L/Q74Y),11.6 µM,8.22 s⁻¹,708000 M⁻¹ s⁻¹,265.6 µM,12.1 s⁻¹,45700 M⁻¹ s⁻¹,–,–,–
PSP (oligopeptidase B from Serratia proteomaculans) (Serratia proteamaculans; H76Q/I71E/P72N/Q73L/Q74Y),24.0 µM,13.4 s⁻¹,560000 M⁻¹ s⁻¹,165.5 µM,10.1 s⁻¹,60700 M⁻¹ s⁻¹,34.65 µM,16 s⁻¹,462000 M⁻¹ s⁻¹
